This is an account of results in PubChem BioAssay AID732 (Emory University Molecular Libraries Screening Center, 2007).

This assay has as its system in vivo angiogenesis, blood vessel count. The assay can be described thus: angiogenesis inhibition in living animals, in vivo study, HTS (AID 732).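 Also: zebrafish embryos dosed at one day post fertilization; 0% = reference inhibitor and 100% = plate mean.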 The settings on record: stronger effect = lower value;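 tested at 30 µM in the well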.

Molecules are shown by their SMILES. Several values for one entry are separate records, joined by “and”; a condition that tells them apart may be missing. Equal values may be shown once. Activity calls are given as the source filed them. No rule for the calls is given here.

Consider `CN(C(=O)Cc1ccccc1)[C@@H]1CC[C@]2(CCCO2)C[C@H]1N1CCCC1`, for which the vessel count % control was inactive: 102%.

With `CN(C(=O)Cc1ccc(Cl)c(Cl)c1)[C@@H]1CC[C@]2(CCCO2)C[C@H]1N1CCCC1`, the vessel count % control is inactive: 107%.

Turning to `CN(C(=O)Cc1ccc(Cl)c(Cl)c1)[C@H]1CCCC[C@@H]1N1CCCC1`, the vessel count % control is inactive: 124% and inactive: 116%.

As for `CN(CCCl)Cc1cc(Cl)c(NC2=NCCN2)c(Cl)c1`, the vessel count % control was inactive: 85.5%.

In the case of `CN(C(=O)Cc1ccc(Cl)c(Cl)c1)[C@@H]1CCCC[C@@H]1N1CCCC1`, the vessel count % control was inactive: 114%.

For the molecule `CN(C(=O)Cc1ccc(Cl)c(Cl)c1)[C@@H]1CCCC[C@H]1N1CCCC1`, the vessel count % control is inactive: 102%.
